Assay results reported in US20160287666A1 (priority 2015, published 2016).

Protein sequences, listed by entry. Tags and fused reporters are not part of them. Lines headed by an entry give the natural chain unless they say otherwise; changes in a name come on top.
UniProt Q15858: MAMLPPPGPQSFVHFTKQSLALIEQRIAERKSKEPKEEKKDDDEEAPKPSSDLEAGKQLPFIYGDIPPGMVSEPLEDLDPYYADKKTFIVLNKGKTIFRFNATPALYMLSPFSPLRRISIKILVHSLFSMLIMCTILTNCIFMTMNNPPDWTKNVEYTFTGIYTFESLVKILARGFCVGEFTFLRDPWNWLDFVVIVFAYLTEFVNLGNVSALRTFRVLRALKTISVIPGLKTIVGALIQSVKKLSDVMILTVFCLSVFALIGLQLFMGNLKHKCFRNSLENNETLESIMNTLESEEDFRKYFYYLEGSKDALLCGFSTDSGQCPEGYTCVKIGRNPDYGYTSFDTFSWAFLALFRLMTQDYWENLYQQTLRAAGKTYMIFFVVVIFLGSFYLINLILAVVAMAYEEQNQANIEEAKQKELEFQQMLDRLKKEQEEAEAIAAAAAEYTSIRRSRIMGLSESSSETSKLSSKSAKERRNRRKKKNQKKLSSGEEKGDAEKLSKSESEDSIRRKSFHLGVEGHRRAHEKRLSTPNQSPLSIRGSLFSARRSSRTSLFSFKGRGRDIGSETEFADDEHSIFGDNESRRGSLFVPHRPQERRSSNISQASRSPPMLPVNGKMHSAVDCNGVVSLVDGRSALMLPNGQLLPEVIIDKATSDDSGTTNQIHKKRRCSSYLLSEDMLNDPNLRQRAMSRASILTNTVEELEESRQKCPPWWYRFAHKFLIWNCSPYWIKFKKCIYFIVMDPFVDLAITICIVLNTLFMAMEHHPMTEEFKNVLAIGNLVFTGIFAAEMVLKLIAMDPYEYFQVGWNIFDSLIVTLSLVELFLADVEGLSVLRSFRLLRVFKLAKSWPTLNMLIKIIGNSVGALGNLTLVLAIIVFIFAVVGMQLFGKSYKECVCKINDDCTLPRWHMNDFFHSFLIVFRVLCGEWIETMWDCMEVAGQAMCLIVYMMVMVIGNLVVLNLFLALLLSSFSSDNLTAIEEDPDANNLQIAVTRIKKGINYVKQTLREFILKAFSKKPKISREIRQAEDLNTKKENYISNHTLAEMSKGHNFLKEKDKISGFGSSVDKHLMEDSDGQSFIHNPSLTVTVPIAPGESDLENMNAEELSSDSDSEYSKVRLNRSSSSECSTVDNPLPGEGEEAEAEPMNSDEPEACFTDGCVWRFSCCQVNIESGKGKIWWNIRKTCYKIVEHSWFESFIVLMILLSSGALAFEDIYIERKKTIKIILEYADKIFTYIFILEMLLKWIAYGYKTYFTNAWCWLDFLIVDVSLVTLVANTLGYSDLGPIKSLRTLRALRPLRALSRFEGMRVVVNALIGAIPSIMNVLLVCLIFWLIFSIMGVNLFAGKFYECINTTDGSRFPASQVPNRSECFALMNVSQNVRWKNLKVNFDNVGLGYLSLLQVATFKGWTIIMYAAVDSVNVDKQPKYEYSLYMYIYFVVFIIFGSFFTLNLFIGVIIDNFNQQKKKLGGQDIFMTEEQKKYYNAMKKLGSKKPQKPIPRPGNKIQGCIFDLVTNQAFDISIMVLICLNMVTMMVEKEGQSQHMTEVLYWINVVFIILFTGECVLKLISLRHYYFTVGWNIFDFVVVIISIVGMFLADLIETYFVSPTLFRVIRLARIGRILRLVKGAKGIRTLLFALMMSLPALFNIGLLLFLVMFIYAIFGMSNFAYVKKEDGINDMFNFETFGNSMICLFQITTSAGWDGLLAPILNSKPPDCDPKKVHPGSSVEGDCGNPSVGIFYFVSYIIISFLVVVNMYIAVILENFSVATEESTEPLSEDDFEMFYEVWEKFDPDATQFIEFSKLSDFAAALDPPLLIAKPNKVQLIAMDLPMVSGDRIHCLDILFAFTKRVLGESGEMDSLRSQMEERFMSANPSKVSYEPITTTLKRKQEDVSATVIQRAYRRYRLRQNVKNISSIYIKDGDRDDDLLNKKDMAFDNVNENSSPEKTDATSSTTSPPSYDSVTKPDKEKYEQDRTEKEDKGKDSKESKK

These substances were tested against human Nav1.7 (Homo sapiens, UniProt Q15858, W1161R). Settings: read-out: Nav1.7 IC50.
Assay type: cell-based

Row | Substance | IC50 [nM]
1 | GPSCQKWMQTCDANRKCCEGFVCTLWCKKKLW-COOH [NV1D3574] | 22.3
2 | GPQCQKWMQTCDRNRKCCEGFVCTLWCRKKLW-COOH [NV1D3044] | 9.8
3 | GPDGPWRKMAPAPAQCQKWMQTCDRERKCCEGFVCTLWCRKKLW-COOH [NV1D3805] | 41.2
4 | GPAAAAAQCQKWMQTCDAERKCCEGFVCRLWCKKKLW-COOH [NV1D3249] | 24.1
5 | GPSCQKWMQTCDARRKCCEGFSCTLWCKKKLW-COOH [NV1D3563] | 22.4
6 | GPACQKWMQTCDANRKCCEGFVCTLWCKKKLW-COOH [NV1D3576] | 26.7
7 | GPSCQKWMQTCDRNRKCCEGFVCTLWCRKKLW-COOH [NV1D3539] | 19.4
8 | GPSCQKWMQTCDRERKCCEGFSCTLWCRKKLW-COOH [NV1D3552] | 28.1
9 | GPQCQKWMQTCDRERKCCESFVCTLWCRKKLW-COOH [NV1D3397] | 66.7
10 | GPFGQKASSAPAPAQCQKWMQTCDRERKCCEGFVCTLWCRKKLW-COOH [NV1D3808] | 57
11 | GPSCQKWMQTCDRERKCCEGFVCTLWCRKKLW-COOH [NV1D3548] | 17.6
12 | GPRCQKWMWTCDSERKCCEGFVCRLWCKKKLW-COOH [NV1D2662] | 4.03
13 | GPQCQKWMQTCDAKRKCCEGFSCTLWCRKKLW-COOH [NV1D3533] | 22.4
14 | GPQCQKWMQTCKRKRKCCEGFVCTLWCRKKLW-COOH [NV1D3424] | 75.2
15 | GPACQKWMQTCDANRKCCEGFSCTLWCKKKLW-COOH [NV1D3561] | 35.6
16 | GPQCQKWMQTCDRKRKCCEGFVCRLWCKKKLW-COOH [NV1D3050] | 10.8
17 | GPYCQKWMQTCDANRKCCEGFVCTLWCKKKLW-COOH [NV1D3575] | 33.2
18 | GPQCQKWMQTCDRESKCCEGFVCTLWCRKKLW-COOH [NV1D3375] | 113
19 | GPSCQKWMQTCDANRKCCEGFSCTLWCKKKLW-COOH [NV1D3559] | 26.5
20 | GPQCQKWMQTCDRERRCCEGFVCTLWCRKKLW-COOH [NV1D3376] | 16.3
21 | GPQCQKWMQTCDRERKCCEGFVCTLWCRAKLW-COOH [NV1D3403] | 28.3

Row | Substance | IC50 [nM]
22 | GPQCQKWMQTCDRRRKCCEGFVCRLWCKKKLW-COOH [NV1D3013] | 11.3
23 | GPQCQKWMQTCDAERKCCEGFVCRLWCKKKLWGGGGG-COOH [NV1D3254] | 17.5
24 | GPQCQKWMQTCDARRKCCEGFVCTLWCRKKLW-COOH [NV1D3036] | 17.2
25 | GPQCQKWMQTCDRKRKCCEGFVCRLWCRKKLW-COOH [NV1D3057] | 83.4
26 | GPYCQKWMQTCDAKRKCCEGFVCTLWCRKKLW-COOH [NV1D3531] | 13
27 | GPQCQKWMQTCDRERKCCEGFVCTLWCRKKLWYGRKKRRQRRR-COOH [NV1D3526] | 15.4
28 | GPQCQKWMQTCDRERKCCEGFVCTLWCRKRLW-COOH [NV1D3408] | 94.8
29 | GPQCQKWMQTCDANRKCCEGFVCTLWCKKKLW-COOH [NV1D3016] | 26.6
30 | GPQCQKWMQTCQRERKCCEGFVCTLWCRKKLW-COOH [NV1D3365] | 66.1
31 | GPQCQKWMQTCDRNRKCCEGFSCTLWCRKKLW-COOH [NV1D3542] | 17.7
32 | GPQCQQWMQTCDRERKCCEGFVCTLWCRKKLW-COOH [NV1D3351] | 15.3
33 | GPQCQKWMQTCDRERKCCEGFVCTLWCRKKLWAPAPASPGARAF-COOH [NV1D3510] | 159
34 | GPRRRRRRRRRRRAPAPAPAPAPQCQKWMQTCDRERKCCEGFVCTLWCRKKLW-COOH [NV1D3813] | 139
35 | GPRCQKWMQTCDRNRKCCEGFSCTLWCRKKLW-COOH [NV1D3543] | 23.8
36 | GPYCQKWMQTCDAERKCCEGFSCRLWCKKKLW-COOH [NV1D3578] | 50.7
37 | GPQCSKWMQTCDRERKCCEGFVCTLWCRKKLW-COOH [NV1D3345] | 22.4
38 | GPQCQKWMQTCDRERSCCEGFVCTLWCRKKLW-COOH [NV1D3382] | 24.3
39 | GPQCQKWMQTCDRERKCCEGFVCTLWCRKKLWAPAPADGPWRKM-COOH [NV1D3513] | 131
40 | GPQCQKWMQTCDANRKCCEGFVCRLWCRKKLW-COOH [NV1D3018] | 9.79
41 | GPQCQKWMQRCDRERKCCEGFVCTLWCRKKLW-COOH [NV1D3353] | 11.2
42 | GPQCQAWMQTCDRERKCCEGFVCTLWCRKKLW-COOH [NV1D3348] | 70.6

Row | Substance | IC50 [nM]
43 | GPSCQKWMQTCDANRKCCEGFSCRLWCKKKLW-COOH [NV1D3585] | 19.4
44 | GPDGPWRKMQCQKWMQTCDRERKCCEGFVCTLWCRKKLW-COOH [NV1D3806] | 35.1
45 | GPQCQKWMQTCDAKRKCCEGFVCTLWCKKKLW-COOH [NV1D3051] | 17.9
46 | GPFGQKASSQCQKWMQTCDRERKCCEGFVCTLWCRKKLW-COOH [NV1D3809] | 38.9
47 | GPYCQKWMQTCDAERKCCEGFSCTLWCKKKLW-COOH [NV1D3556] | 100
48 | GPQCQKWMQTCDRERKCCEGFVCTLWCRKKLWQRFVTGHFGGLYPANG-COOH [NV1D3520] | 71.4
49 | GPQCQKWMQTCDRERKCCEGFQCTLWCRKKLW-COOH [NV1D3400] | 57.3
50 | GPQCQKWMQTCDRERKCCSGFVCTLWCRKKLW-COOH [NV1D3389] | 30.8
51 | GPQCQKWMQTCDRERKCCEDFVCTLWCRKKLW-COOH [NV1D3394] | 155
52 | GPSCQKWMWTCDAERKCCEGFVCRLWCKKKLW-COOH [NV1D2738] | 2.57
53 | GPQCQKWMQTCDRERKCCEGFSCTLWCRKKLW-COOH [NV1D3398] | 67.3
54 | GPYCQKWMQTCDRNRKCCEGFSCTLWCRKKLW-COOH [NV1D3545] | 42.8
55 | GPQCQKWMQTCDRERKCCEGFVCTLWCRKKLWAPAPAPAPAP-COOH [NV1D3527] | 169
56 | GPQCAKWMQTCDRERKCCEGFVCTLWCRKKLW-COOH [NV1D3342] | 12.8
57 | GPQCQKWMQTCDAERKCCEGFSCTLWCKKKLW-COOH [NV1D2974] | 95.7
58 | GPSHSNTQTLAKAPEHTGQCQKWMQTCDRERKCCEGFVCTLWCRKKLW-COOH [NV1D3777] | 64.9
59 | GPQCQKWMQTCARERKCCEGFVCTLWCRKKLW-COOH [NV1D3363] | 93.1
60 | GPSCQKWMQTCDAERKCCEGFSCRLWCKKKLW-COOH [NV1D2969] | 31
61 | GPYCQKWMQTCDARRKCCEGFSCTLWCKKKLW-COOH [NV1D3564] | 32.3
62 | GPQCRKWMQTCDRERKCCEGFVCTLWCRKKLW-COOH [NV1D3339] | 6.57
63 | GPQCQKWMQTCDRERKCCTGFVCTLWCRKKLW-COOH [NV1D3385] | 41.5

Row | Substance | IC50 [nM]
64 | GPACQKWMQTCDARRKCCEGFSCTLWCKKKLW-COOH [NV1D3565] | 23
65 | GPACQKWMQTCDAKRKCCEGFSCTLWCRKKLW-COOH [NV1D3537] | 21.4
66 | GPQCQKWMQTCDRERACCEGFVCTLWCRKKLW-COOH [NV1D3378] | 24.8
67 | GPQCQKWMQTCDRERKCCEGFVCTLWCRKKLWSPGARAF-COOH [NV1D3511] | 71.5
68 | GPQCQKWMQTCDRRRKCCEGFVCRLWCRKKLW-COOH [NV1D3033] | 14.5
69 | GPQCQKWMQTCDRERKCCGGFVCTLWCRKKLW-COOH [NV1D3467] | 34.5
70 | GPQCQKWMQTCDRRRKCCEGFVCTLWCRKKLW-COOH [NV1D3045] | 15.6
71 | GPQCQKWMQTCDRERKCCEGFVCTLWCRKKLWFGQKASS-COOH [NV1D3517] | 58.5
72 | GPRCQKWMQTCDSERKCCEGFVCRLWCKKKLW-COOH [NV1D2733] | 7.54
73 | GPSCQKWMQTCDARRKCCEGFVCTLWCKKKLW-COOH [NV1D3570] | 18.1
74 | GPQCQKWMQTCDRKRKCCEGFVCTLWCRKKLW-COOH [NV1D3062] | 13.2
75 | GPQCQKWMQTCDRERKCCEGFVCTLWCRKALW-COOH [NV1D3410] | 114
76 | GPAPAPAQCQKWMQTCDRERKCCEGFVCTLWCRKKLW-COOH [NV1D3789] | 29.9
77 | GPQCQKWMQTCDRERKCCKGFVCTLWCRKKLW-COOH [NV1D3384] | 46.8
78 | GPQCQKWMQTCDAERKCCEGFVCRLWCKKKLWAPAPA-COOH [NV1D3252] | 145
79 | GPQCQKWMQTCDRQRKCCEGFVCTLWCRKKLW-COOH [NV1D3367] | 18.6
80 | GPQRFVTGHFGGLYPANGAPAPAQCQKWMQTCDRERKCCEGFVCTLWCRKKLW-COOH [NV1D3811] | 87.7
81 | GPQCQKWMQTCDRERKCCETFVCTLWCRKKLW-COOH [NV1D3392] | 117
82 | GPACQKWMQTCDRNRKCCEGFSCTLWCRKKLW-COOH [NV1D3546] | 76

Same assay, conditions: read-out: hNav1.7 TETRA IC50

Row | Substance | IC50 [nM]
83 | GPYCQKWMQTCDAERKCCEGMVCRLWCKKKLW-COOH [NV1D2676] | 26.5 ± 2.9
84 | GPYCQKWMQTCDSERKCCEGFVCRLWCKKKLW-COOH [NV1D2666] | 66.5 ± 36.7
85 | GPQCQKWMQTCDAERKCCEGMVCRLWCKKKLW-COOH [NV1D2732] | 126 ± 26.9
86 | GPSCQKWMQTCDAERKCCEGLVCRLWCKKKLW-COOH [NV1D2899] | 33.3 ± 6.7
87 | GPRCQKWMQTCDSERKCCEGMVCRLWCKKKLW-COOH [NV1D2668] | 17.5 ± 2.6
88 | GPQCQKWMQTCDSERKCCEGMVCRLWCKKKLW-COOH [NV1D2671] | 31.5 ± 6.4
89 | GPSCQKWMQTCDSERKCCEGMVCRLWCKKKLW-COOH [NV1D2669] | 18.4 ± 5.7
90 | GPACQKWMQTCDAERKCCEGMVCRLWCKKKLW-COOH [NV1D2731] | 20.7 ± 7.2
